Results as given in PMC4519180 (2015).

Target: p8 probe peptide, labeled with 6-carboxyfluorescein (6-carboxyfluorescein at the N-terminus)

B1: recombinant purified ABL SH3 domain alone (domain or fragment)
chain: NDPNLFVALYDFVASGDNTLSITKGEKLRVLGYNHNGEWCEAQTKNGQGWVPSNYITPVNS
Kd: 5 µM
